Protein sequences, listed by entry. Tags and fused reporters are not part of them.
UniProt Q28642, whole entry: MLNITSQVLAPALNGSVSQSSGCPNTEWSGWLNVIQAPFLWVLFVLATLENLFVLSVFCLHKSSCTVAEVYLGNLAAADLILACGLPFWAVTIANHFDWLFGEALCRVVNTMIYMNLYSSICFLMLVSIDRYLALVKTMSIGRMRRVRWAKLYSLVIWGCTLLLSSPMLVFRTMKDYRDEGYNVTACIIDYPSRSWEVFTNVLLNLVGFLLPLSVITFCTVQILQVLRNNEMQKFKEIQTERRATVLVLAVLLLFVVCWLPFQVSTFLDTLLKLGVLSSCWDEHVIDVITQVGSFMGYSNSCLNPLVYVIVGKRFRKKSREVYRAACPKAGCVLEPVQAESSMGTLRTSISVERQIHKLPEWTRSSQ

In patent publication US7211566B2 (Universite De Sherbrooke, priority 2003, dated 2007):

Assays:
BKB1 receptor = molecular target: T1, BKB1 receptor (Oryctolagus cuniculus, UniProt P48748); assay: Isolated rabbit aorta (rbA) organ bath, antagonist potency pA2; format: cell-based
T1 construct: The rabbit aorta without endothelium (which contains only the BKB1 receptor); from tissue; host or cells: isolated rabbit aorta (rbA) without endothelium
T1 sequence (P48748 1-352): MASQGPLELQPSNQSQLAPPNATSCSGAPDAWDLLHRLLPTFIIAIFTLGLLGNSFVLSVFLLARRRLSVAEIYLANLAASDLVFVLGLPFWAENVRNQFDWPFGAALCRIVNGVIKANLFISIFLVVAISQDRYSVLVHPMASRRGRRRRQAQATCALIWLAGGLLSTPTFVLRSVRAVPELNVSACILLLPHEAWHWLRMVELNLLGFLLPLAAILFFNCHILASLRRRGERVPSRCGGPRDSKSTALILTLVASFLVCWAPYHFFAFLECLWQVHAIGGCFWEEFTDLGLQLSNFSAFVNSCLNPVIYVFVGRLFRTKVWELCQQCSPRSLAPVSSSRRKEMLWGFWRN
Protocol: (§1) Selected antagonists were tested for activities in three isolated organs: (1) the rabbit aorta (rbA), (2) the human umbilical vein (hUV) and (3) the rabbit jugular vein (rbJV).
(§2) All details regarding the procurements of human umbilical cords and rabbit vessels as well as, the procedures for preparing the isolated organs and the experimental protocols are described in these respective publications: rbA (Rioux et al. 1973, Can J Physiol Pharmacol 51, 114–121); hUV (Gobeil et al. 1996, Br J Pharmacol 118, 289–294), and rbJV (Gaudreau et al. 1981, Can J Physiol Pharmacol 59, 371–379).
The rabbit aorta without endothelium (which contains only the BKB1 receptor) was used to determine the antagonistic activities of each compound.
The rabbit jugular vein (a pure BKB2 receptor system) was used to exclude any action of the new compounds on the BKB2 receptor and thus establish their selectivity. All tissues were treated with captopril (1 μM) to prevent the degradation of the peptidic agonists. […]

BKB2 receptor = molecular target: T2, BKB2 receptor (Oryctolagus cuniculus, UniProt Q28642); assay: Isolated rabbit jugular vein (rbJV) organ bath, antagonist potency pA2; format: cell-based
T2 construct: The rabbit jugular vein (a pure BKB2 receptor system); from tissue; host or cells: isolated rabbit jugular vein (rbJV)
Protocol: as §1, §2
The rabbit jugular vein (a pure BKB2 receptor system) was used to exclude any action of the new compounds on the BKB2 receptor and thus establish their selectivity. All tissues were treated with captopril (1 μM) to prevent the degradation of the peptidic agonists.
Repeated applications of a single and double concentration of BK (on rbJV,) or of desArg^9BK (rbA and hUV) were made in the absence and in presence of the various peptides to evaluate their apparent affinities as antagonists, in terms of pA2 (-log10 of the molar concentration of antagonist that reduces the effect of a double concentration of agonist to that of a single one) (Schild 1947, Br J Pharmacol 2, 189–206). […]

CC(C)C[C@H](NC(=O)[C@@H]1CCCN1C(=O)[C@H](CO)NC(=O)[C@H](Cc1ccccc1)NC(=O)CNC(=O)[C@@H]1CCCN1C(=O)[C@@H]1CCCN1C(=O)[C@H](CCCN=C(N)N)NC(=O)[C@@H](N)CCCCN)C(=O)O [Lys-[Leu^8]desArg^9-BK, Lys-[Leu^8] desArg^9BK]
Kb (BKB1 receptor): 5.37 nM | Kb (BKB2 receptor): > 1000 nM
